Assay results as given in ChEMBL document CHEMBL1141625, “Potent, selective MCH-1 receptor antagonists” (Bioorg Med Chem Lett, 2008).

Chains of the proteins cited; added tags and fusions are not shown. Lines headed by an entry give the natural chain unless they say otherwise; changes in a name come on top.
UniProt P41145: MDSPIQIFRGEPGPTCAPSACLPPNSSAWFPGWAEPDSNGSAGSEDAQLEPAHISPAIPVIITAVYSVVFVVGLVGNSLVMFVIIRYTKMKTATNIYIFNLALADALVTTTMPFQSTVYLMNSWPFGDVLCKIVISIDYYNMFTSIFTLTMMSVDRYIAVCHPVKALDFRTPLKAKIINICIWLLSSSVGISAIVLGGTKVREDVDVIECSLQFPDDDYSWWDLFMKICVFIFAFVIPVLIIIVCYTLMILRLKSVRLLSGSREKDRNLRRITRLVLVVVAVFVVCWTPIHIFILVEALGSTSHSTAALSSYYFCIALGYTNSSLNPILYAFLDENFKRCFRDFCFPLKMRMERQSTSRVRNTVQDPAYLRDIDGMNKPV
UniProt P35372, whole entry, looked up: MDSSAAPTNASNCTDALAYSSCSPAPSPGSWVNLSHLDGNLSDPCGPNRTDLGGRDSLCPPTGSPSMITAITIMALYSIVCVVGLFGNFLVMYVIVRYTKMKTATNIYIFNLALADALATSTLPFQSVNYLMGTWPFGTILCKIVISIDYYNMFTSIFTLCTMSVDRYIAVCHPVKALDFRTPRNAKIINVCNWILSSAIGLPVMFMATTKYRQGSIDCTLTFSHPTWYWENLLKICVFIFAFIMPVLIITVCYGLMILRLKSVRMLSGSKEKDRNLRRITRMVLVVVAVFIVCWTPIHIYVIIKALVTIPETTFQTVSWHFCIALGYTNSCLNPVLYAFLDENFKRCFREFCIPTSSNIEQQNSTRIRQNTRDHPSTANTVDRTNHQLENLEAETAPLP
UniProt P35462, whole entry, looked up: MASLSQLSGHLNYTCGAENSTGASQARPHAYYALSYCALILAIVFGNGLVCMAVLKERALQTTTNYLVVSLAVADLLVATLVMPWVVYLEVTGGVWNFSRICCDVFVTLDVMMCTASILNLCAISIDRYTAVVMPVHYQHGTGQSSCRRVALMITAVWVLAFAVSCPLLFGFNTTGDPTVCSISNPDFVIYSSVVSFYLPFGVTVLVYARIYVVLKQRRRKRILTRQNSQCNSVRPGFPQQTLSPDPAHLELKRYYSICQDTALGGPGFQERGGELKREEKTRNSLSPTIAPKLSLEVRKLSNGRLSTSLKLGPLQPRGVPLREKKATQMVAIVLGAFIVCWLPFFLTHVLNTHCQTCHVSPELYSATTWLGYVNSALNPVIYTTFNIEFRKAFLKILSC
UniProt P41143, whole entry, looked up: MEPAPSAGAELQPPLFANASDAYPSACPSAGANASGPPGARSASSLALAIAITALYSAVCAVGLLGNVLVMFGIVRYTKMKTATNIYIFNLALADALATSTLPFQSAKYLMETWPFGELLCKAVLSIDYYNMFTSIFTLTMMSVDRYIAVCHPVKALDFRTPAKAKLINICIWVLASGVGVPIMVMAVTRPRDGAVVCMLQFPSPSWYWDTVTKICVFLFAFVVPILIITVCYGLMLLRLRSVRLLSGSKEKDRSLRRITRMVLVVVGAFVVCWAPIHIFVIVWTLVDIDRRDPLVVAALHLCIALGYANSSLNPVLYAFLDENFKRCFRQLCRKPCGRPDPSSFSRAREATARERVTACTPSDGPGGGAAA

Experiments:
[1] = molecular target: Kappa-type opioid receptor (Homo sapiens) (UniProt P41145); assay: Inhibition of kappa opioid receptor at 10 uM
[2] = molecular target: Mu-type opioid receptor (Homo sapiens) (UniProt P35372); assay: Inhibition of mu opioid receptor at 10 uM
[3] = molecular target: D(3) dopamine receptor (Homo sapiens) (UniProt P35462); assay: Inhibition of dopamine D3 receptor at 10 uM
[4] = molecular target: Delta-type opioid receptor (Homo sapiens) (UniProt P41143); assay: Inhibition of delta opioid receptor at 10 uM
[5] = molecular target: Mu-type opioid receptor (Homo sapiens) (UniProt P35372); assay: Agonist activity at mu opioid receptor

Row | SMILES | inhibition [1] [%] | inhibition [2] [%] | inhibition [3] [%] | inhibition [4] [%] | Activity [5] [%]
1 | COC(=O)Nc1ccc2c(c1)C[C@@H](CN1CC[C@@H](n3c(C)nc4cc(C)ccc43)[C@H](OC)C1)C2 | 55 | 85 | – | – | –
2 | CO[C@@H]1CN(C[C@@H]2Cc3ccc(NC(=O)C(C)C)cc3C2)CC[C@H]1n1c(C)nc2cc(C)ccc21 | 13 | 45 | 13 | – | –
3 | CO[C@@H]1CN(C[C@H]2Cc3ccc(Br)cc3C2)CC[C@H]1n1c(C(C)(C)O)nc2cc(C)ccc21 | 61 | 94 | – | 42 | 57
4 | CO[C@@H]1CN(CC2Cc3ccccc3C2)CC[C@H]1n1c(C)nc2cc(C)ccc21 | 76 | 76 | – | 15 | –
5 | CO[C@@H]1CN(C[C@H]2Cc3ccc(Br)cc3C2)CC[C@H]1n1c(C)nc2cc(C)ccc21 | 91 | 91 | – | 47 | –
6 | Cc1ccc2c(c1)nc(C)n2C1CCN(CCCc2cccc(NC(=O)C(C)C)c2)CC1 | 46 | 97 | 46 | – | –
7 | CO[C@H]1CN(CCCc2cccc(NC(=O)C3CC3)c2)CC[C@@H]1n1c(C)nc2cc(C)ccc21 | 38 | 74 | – | – | –
8 | CO[C@@H]1CN(C[C@H]2Cc3ccc(C#N)cc3C2)CC[C@H]1n1c(C(C)(C)O)nc2cc(C)ccc21 | 32 | 67 | – | 30 | –
